Test results from ChEMBL document CHEMBL5543070, “Structure-activity relationship study of 1,6-naphthyridinone derivatives as selective type II AXL inhibitors with potent antitumor efficacy” (Eur J Med Chem, 2024).

Key:
[1] = biological target: T1, Tyrosine-protein kinase Mer (Homo sapiens) (UniProt Q12866); test: Inhibition of MER (unknown origin) at 1 uM relative to control
T1 sequence (whole entry): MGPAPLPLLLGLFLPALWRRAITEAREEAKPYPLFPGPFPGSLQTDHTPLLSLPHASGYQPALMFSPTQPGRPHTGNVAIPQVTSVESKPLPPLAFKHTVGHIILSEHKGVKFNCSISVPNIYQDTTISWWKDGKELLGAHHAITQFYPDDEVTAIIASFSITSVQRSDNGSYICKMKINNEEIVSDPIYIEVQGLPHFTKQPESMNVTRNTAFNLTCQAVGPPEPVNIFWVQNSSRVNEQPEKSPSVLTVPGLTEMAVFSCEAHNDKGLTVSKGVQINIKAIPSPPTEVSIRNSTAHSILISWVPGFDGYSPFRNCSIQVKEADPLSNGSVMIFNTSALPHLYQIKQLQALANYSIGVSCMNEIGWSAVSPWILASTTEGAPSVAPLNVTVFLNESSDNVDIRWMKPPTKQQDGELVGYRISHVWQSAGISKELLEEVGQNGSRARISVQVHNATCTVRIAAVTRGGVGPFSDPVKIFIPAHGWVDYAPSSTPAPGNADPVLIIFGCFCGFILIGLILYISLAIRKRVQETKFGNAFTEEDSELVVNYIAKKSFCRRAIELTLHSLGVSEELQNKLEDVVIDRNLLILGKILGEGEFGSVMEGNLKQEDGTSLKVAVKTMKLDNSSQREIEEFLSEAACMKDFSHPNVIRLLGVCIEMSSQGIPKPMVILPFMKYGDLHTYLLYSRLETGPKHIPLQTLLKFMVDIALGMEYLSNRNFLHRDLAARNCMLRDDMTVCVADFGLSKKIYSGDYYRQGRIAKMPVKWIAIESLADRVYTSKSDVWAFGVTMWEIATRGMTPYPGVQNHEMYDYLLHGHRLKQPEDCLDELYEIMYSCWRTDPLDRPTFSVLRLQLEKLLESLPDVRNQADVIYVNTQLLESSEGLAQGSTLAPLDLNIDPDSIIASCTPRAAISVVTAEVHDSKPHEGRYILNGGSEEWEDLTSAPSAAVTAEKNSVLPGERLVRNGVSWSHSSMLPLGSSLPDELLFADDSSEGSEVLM

[2] = biological target: T2, Tyrosine-protein kinase receptor TYRO3 (Homo sapiens) (UniProt Q06418); test: Inhibition of TYRO3 (unknown origin) at 1 uM relative to control
T2 sequence (whole entry): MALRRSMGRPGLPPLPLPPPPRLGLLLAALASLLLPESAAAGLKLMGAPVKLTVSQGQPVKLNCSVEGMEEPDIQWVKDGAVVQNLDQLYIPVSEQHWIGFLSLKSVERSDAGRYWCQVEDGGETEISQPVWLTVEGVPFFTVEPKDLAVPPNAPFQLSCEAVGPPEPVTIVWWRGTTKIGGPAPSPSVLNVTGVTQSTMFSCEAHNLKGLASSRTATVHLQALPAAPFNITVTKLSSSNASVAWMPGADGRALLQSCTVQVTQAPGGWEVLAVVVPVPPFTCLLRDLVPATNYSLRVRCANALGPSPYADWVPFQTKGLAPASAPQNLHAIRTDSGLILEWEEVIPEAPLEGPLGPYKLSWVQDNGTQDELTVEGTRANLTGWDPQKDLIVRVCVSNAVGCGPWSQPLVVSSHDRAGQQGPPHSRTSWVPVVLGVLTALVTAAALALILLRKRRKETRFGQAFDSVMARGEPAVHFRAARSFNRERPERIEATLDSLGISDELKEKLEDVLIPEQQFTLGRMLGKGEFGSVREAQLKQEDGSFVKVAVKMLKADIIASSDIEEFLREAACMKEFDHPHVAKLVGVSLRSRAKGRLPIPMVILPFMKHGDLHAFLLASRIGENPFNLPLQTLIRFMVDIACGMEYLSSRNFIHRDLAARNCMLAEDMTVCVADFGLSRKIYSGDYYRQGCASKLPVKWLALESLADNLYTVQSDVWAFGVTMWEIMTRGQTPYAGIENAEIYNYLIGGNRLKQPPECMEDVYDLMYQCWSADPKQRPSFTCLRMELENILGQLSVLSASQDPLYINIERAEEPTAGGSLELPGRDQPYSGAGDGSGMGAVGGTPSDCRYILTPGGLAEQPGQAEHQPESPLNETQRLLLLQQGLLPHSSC

With `COc1cc2ncnc(Oc3ccc(Nc4nccc5c4c(=O)c(-c4cccc(C)c4)cn5C)cc3F)c2cc1OC` the inhibition [1] was 97% and the inhibition [2] was 91%.
